Experimental data: EP4744648A1, “LIPOPEPTIDE-CONTAINING FAT-DISSOLVING PRODUCT, AND PREPARATION METHOD THEREFOR AND USE THEREOF” (Bloomage Biotechnology Corporation Limited, priority 2023, dated 2024)

System: Female Kunming mice
Assay: Animal experiment comparing surfactin-C14 and surfactin-C15: subcutaneous injection in right inguinal region, four administrations
Conditions: 200 µL s.c.

Question: Which “Incidence of local adverse reactions, First administration” value (“Incidence … First administration” for short) (1 mg/mL (low-dose)) does the source give for surfactin-C15 [HXRZ-C] here?
Answer: 0.00%

Question: And the “Incidence of local adverse reactions, Fourth administration” value (“Incidence … Fourth administration” for short) (1 mg/mL (low-dose))?
Answer: 0.00%

Question: What about the “Incidence of local adverse reactions, Second administration” value (from here on “Incidence … Second administration”) (1 mg/mL (low-dose)) of the same substance?
Answer: 14.29%

Question: What about the “Incidence of local adverse reactions, Third administration” value (from here on “Incidence … Third administration”) (1 mg/mL (low-dose)) of the same substance?
Answer: 0.00%

Question: What about the “Incidence … First administration” value (5 mg/mL (medium-dose)) of the same substance?
Answer: 14.29%

Question: What about the “Incidence … Fourth administration” value (5 mg/mL (medium-dose)) of the same substance?
Answer: 20.00%

Question: What about the “Incidence … Second administration” value (5 mg/mL (medium-dose)) of the same substance?
Answer: 28.57%

Question: And the “Incidence … Third administration” value (5 mg/mL (medium-dose))?
Answer: 0.00%

Question: And the “Incidence … Fourth administration” value (10 mg/mL)?
Answer: 40.00%

Question: And the “Incidence … Second administration” value (10 mg/mL)?
Answer: 28.57%

Question: And the “Incidence … Third administration” value (10 mg/mL)?
Answer: 20.00%

Question: What about the “Incidence … First administration” value (10 mg/mL, percentage of mice with abnormalities at the administration site) of the same substance?
Answer: 42.86%
